The data set is described as follows: Pharmacokinetics after intravenous (IV) and oral dosing in rats. To be noted: oral 0.1 mg/kg and IV 0.1 mg/kg, male Wistar Han rats.

Values joined by “and” are separate entries in the source; they are usually repeats but may differ in a detail not shown here. Equal values may be shown once. Some results are limits rather than exact numbers.

For the compound `C[C@@H]1CC2C3C[C@H](F)C4=CC(=O)C=C[C@]4(C)[C@@]3(F)[C@@H](O)C[C@]2(C)[C@@]1(OC(=O)c1ccco1)C(=O)SCF` (stereo partly drawn) [Example 1, 6α,9α-Difluoro-17α-[(2-furanylcarbonyl)oxy]-11β-hydroxy-16α-methyl-3-oxo-androsta-1,4-diene-17β-carbothioic acid S-fluoromethyl ester], the oral bioavailability was < 1% and 0.9%.

(Values after patent publication US6878698B2, “Anti-inflammatory androstane derivatives” (Glaxo Group Limited, priority 2001, dated 2005).)
